Earlier results, collected in patent publication US10325677B2, “Apparatus and computerized method for optimizing or generating a sigma profile for a molecule” (Texas Tech University System, priority 2014, dated 2019).

Details: published in the literature

Row | SMILES | NRTL-SAC Conceptual Segment Number X | NRTL-SAC Conceptual Segment Number Y^+ | NRTL-SAC Conceptual Segment Number Y^− | NRTL-SAC Conceptual Segment Number Z
1 | CC(=O)Oc1ccccc1C(=O)O [Aspirin, aspirin] | 0.103 | 1.160 | 0 | 0.777
2 | CC[C@H](C)C(=O)O[C@H]1C[C@@H](C)C=C2C=C[C@H](C)[C@H](CC[C@@H]3C[C@@H](O)CC(=O)O3)[C@H]21 [Lovastatin, lovastatin] | 0.175 | 0.548 | 0 | 0.882
3 | CC(=O)Nc1ccc(O)cc1 [Paracetamol, paracetamol] | 0.498 | 0.162 | 0.487 | 1.270
